Data from US11466005B2, “Tricyclic compounds” (JACOBIO PHARMACEUTICALS CO., LTD., priority 2018, dated 2022).

How the values were obtained:
MV-4-11 cells = test: MV-4-11 cell proliferation assay (MTS); settings: read-out: MV-4-11 IC50, 3 days culture
Experimental: 2. Cell Proliferation Assay
MV-4-11 cell proliferation analysis was conducted by the MIS (3-(4,5-dimethylthiazol-2-yl)-5-(3-carboxymethoxyphenyl)-2-(4-sulfophenyl)-2H-tetrazolium, inner salt) assay. Briefly, MV-4-11 cells will be cultured in IMDM (Iscove's Modified Dubecco's Medium) medium supplemented with 10% (v/v) FBS (fetal bovine serum), under the temperature of 37° C., […] and 95% humidity. The cells will be harvested respectively during the logarithmic growth period and counted with hemocytometer. The cell viability is over […] by trypan blue exclusion. Adjust MV-4-11 cells concentrations to 1.2×10^5 cells/mL with complete medium. Add 100 μL cell suspensions to 96-well plates (triplicates for each cell concentration), the final cell densities are 1.2×10^4 cells/well. The next day, dissolve the test compound with DMSO as stock solution. Dispense 5 μL of the stock solution in 1 mL culture media and add 25 μL drug media into 96-well plates. After serially diluting with culture media, the final concentration of the compound will be 0, 0.03, 0.1, 0.3, 1, 3, 10, 30, 100 nM. The plates will be cultured for 3 days, then measured by means of MTS assay. Add PMS (phenazinium methosulfate) solution to MITS solution (1:20) immediately before addition to the culture plate containing cells. […] Record the absorbance at 490 nm using a microplate spectrophotometer (Envision®, PeikinElmer). […]

BRD4(BD1) = BRD4(BD1) (Homo sapiens (Human), UniProt O60885); test: BRD4(BD1) biochemical binding assay (HTRF); settings: read-out: BRD4(BD1) IC50, biotinylated H4 derived acetylated peptide
Experimental: 1. BRD4(BD1) Binding Assays
The BRD4(BD1) biochemical binding assay was performed by Sundia MediTech Co. Ltd. in 384-well white plate (OptiPlate-384, PerkinElmer) using HTRF technology.
Briefly, 20 nL of compounds were transferred to the 384-well plate by Echo® 550 liquid handler (Labcyte, USA), then 5 μL of BRD4(BD1) (Reaction Biology Company, RD-11-157) solution or the assay buffer was added to each well. After incubating at RT for 15 min, 5 μL of the biotinylated H4 derived acetylated peptide (synthesized by GL Biochem (Shanghai) Ltd) and 10 μL of the detection solution (Cisbio Assay) were added to each well. After incubating for 1 h at RT, the HTRF signal was measure at 615 nm and 665 nm using the EnVision Multilabel Plate Reader (PerkinElmer, USA). Results were analyzed with a two-wavelength signal ratio: intensity (665 nm)/intensity (615 nm). The inhibition percentage in the presence of the compound was calculated according to the equation, Percent inhibition=(Max−Signal)/(Max−Min)*100%. Fit the data in GraphPad Prism V5.0 software (San Diego, Calif.) to obtain IC50 values with nonlinear regression analysis using equation, Y=Bottom+(Top−Bottom)/(1+10^((Log IC50−X)×HillSlope), where Y stands for inhibition percentage and X stands for compound concentration.

Row | SMILES | IC50 (MV-4-11 cells) | IC50 (BRD4(BD1))
1 | Cc1nnn(C)c1-c1cnc2c3c(c(C(C)(C)O)nn3C)n(C(c3ccncc3F)C3CCOCC3)c2c1 (stereo not shown) | 5 nM | 0.88 nM
2 | [2H]C([2H])([2H])c1nnn(C)c1-c1cnc2c3c(c(C(C)(C)O)nn3C)n([C@H](c3ncccc3F)C3CCOCC3)c2c1 | 0.83 nM | 0.54 nM
